Experiments:
fibrinogen = fibrinogen (UniProt P02671)
protein C = protein C (UniProt P04070)
[1] = molecular target: protease-activated receptor PAR1 (UniProt P25116)

Substance | kcat/Km for release of fibrinopeptide A (FpA) from fibrinogen (fibrinogen) [µM⁻¹ s⁻¹] | kcat/Km for activation of protein C in the presence of 50 nM thrombomodulin and 5 mM CaCl2 (protein C) [µM⁻¹ s⁻¹] | kcat/Km for cleavage of PAR1 [1] [µM⁻¹ s⁻¹]
thrombin mutant EDE (E14eA/D14lA/E18A), auto-activated | 7.2 | 0.11 | 9.1
thrombin mutant EDEWE (E14eA/D14lA/E18A/W215A/E217A), auto-activated | 0.00026 | 0.031 | 0.016
wild type human thrombin | 17 | 0.22 | 27

Source: US20130309753
